Data published in patent publication US8658687B2, “Injectable formulations containing asenapine and method of treatment using same” (Merck Sharp & Dohme Corp., priority 2009, dated 2014).

Experiment: Solubility in aqueous phosphate buffer at pH 7

| SMILES | solubility in an aqueous phosphate buffer at pH 7 |
| --- | --- |
| CN1C[C@@H]2c3ccccc3Oc3ccc(Cl)cc3[C@H]2C1.CN1C[C@@H]2c3ccccc3Oc3ccc(Cl)cc3[C@H]2C1.O=C(O)c1cc2ccccc2c(Cc2c(O)c(C(=O)O)cc3ccccc23)c1O [crystalline Form I of asenapine hemipamoate] | about 12.6 micrograms/mL |
| CN1C[C@@H]2c3ccccc3Oc3ccc(Cl)cc3[C@H]2C1.CN1C[C@@H]2c3ccccc3Oc3ccc(Cl)cc3[C@H]2C1.O=C(O)c1cc2ccccc2c(Cc2c(O)c(C(=O)O)cc3ccccc23)c1O [crystalline Form II of asenapine hemipamoate] | about 3 micrograms/mL |
